Test results taken from patent publication US7834164B2 (priority 2006, dated 2010).

Amino acid sequences for entries named in this document (tags omitted).
UniProt P22001, whole entry: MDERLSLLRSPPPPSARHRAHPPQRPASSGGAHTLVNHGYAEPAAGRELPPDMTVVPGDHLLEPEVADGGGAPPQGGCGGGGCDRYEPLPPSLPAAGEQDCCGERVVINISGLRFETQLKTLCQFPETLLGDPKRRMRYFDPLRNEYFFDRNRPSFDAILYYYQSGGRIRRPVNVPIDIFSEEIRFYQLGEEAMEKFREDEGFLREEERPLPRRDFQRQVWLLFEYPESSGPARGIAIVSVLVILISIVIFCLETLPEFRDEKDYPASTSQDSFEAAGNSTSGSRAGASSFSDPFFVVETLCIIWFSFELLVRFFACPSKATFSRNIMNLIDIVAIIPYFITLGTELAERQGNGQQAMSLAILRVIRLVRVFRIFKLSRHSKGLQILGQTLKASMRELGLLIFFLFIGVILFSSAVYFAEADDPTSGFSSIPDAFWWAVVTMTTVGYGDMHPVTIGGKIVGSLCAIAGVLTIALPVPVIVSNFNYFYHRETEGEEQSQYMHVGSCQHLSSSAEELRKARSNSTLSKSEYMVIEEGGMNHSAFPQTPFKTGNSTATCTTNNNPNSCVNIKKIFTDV
UniProt Q09470, whole entry: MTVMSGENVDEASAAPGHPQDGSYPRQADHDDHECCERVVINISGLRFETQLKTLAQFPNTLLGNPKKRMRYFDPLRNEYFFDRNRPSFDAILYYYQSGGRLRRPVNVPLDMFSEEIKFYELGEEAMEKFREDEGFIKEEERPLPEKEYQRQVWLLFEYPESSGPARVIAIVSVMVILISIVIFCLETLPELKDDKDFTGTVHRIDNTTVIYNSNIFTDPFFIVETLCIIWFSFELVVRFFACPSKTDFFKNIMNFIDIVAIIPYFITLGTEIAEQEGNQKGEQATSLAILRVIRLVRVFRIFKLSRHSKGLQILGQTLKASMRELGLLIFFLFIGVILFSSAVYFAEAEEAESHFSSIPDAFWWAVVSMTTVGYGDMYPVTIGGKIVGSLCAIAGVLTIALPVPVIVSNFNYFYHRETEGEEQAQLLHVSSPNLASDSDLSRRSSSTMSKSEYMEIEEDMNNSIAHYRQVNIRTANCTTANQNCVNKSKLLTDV

What was measured:
[1] = target: human Kv1.3 (Homo sapiens, UniProt P22001); format: cell-based; parameters: host or cells: HEK293
[2] = target: T1, human Kv1.1 (Homo sapiens, UniProt Q09470); format: cell-based
T1 construct: expressed in transfected cells; host or cells: HEK293

Question: With CC[C@H](C)[C@@H]1NC(=O)[C@H](CCCCN)NC(=O)[C@@H](NC(=O)[C@H](CCCCN)NC(=O)[C@@H](NC(=O)[C@H](CC(N)=O)NC(=O)[C@@H](NC(=O)[C@@H](NC(=O)[C@@H](NC(=O)CN)C(C)C)[C@@H](C)CC)[C@@H](C)CC)C(C)C)CSSC[C@@H]2NC(=O)[C@H](CCCCN)NC(=O)CNC(=O)[C@H](Cc3ccccc3)NC(=O)[C@H](CCCNC(=N)N)NC(=O)[C@H](CCSC)NC(=O)CNC(=O)[C@H](C)NC(=O)[C@H](CCCCN)NC(=O)[C@H](CCCCN)NC(=O)[C@@H]3CSSC[C@@H](C(=O)N[C@H](C(=O)N4CCC[C@H]4C(=O)N[C@@H](CCCCN)C(=O)O)[C@@H](C)O)NC(=O)[C@H](Cc4c[nH]cn4)NC(=O)[C@H](CSSC[C@H](NC(=O)[C@H](CCC(N)=O)NC(=O)[C@H](CCCNC(=N)N)NC(=O)[C@H](CO)NC1=O)C(=O)N[C@@H](CC(C)C)C(=O)N[C@@H](CCC(=O)O)C(=O)N1CCC[C@H]1C(=O)N3)NC(=O)[C@H](CCCCN)NC(=O)CNC(=O)[C@H](CC(N)=O)NC(=O)[C@H](CCSC)NC2=O [OSK1, reference compound] as the compound, how does the hKv1.1/hKv1.3 [1] read?
Answer: Its hKv1.1/hKv1.3 is 4.

Question: What about the “Kv1.1 IC50 fold higher than Kv1.3 IC50 (Kv1.3 selectivity)” value [2] of the same compound?
Answer: The value was 5 fold.
